# This is a selection; strong and weak results do not stand in their true shares.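 Each cell line was grown in a 96-well plate and treated with one concentration of compound for 48 hours. Values below 10 were considered active.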 Calls of active or inactive are those of the source.
# Columns and labels:
# Experiment in all cases: NCI-60 one-dose screen, 48 h (100 = growth as untreated, 0 = no growth, -100 = all killed)
# HCT-15 colon = settings: 10 µM unless noted
# HT29 colon = settings: 10 µM unless noted
# SNB-75 CNS = settings: 10 µM unless noted
# SNB-19 CNS = settings: 10 µM unless noted
# U251 CNS = settings: 10 µM unless noted
# PC-3 prostate = settings: 10 µM unless noted
# SK-MEL-5 melanoma = settings: 10 µM unless noted
# UACC-62 melanoma = settings: 10 µM unless noted
# LOX IMVI melanoma = settings: 10 µM
# SK-MEL-28 melanoma = settings: 10 µM unless noted
Structure (SMILES),growth (HCT-15 colon),growth (HT29 colon),growth (SNB-75 CNS),growth (SNB-19 CNS),growth (U251 CNS),growth (PC-3 prostate),growth (SK-MEL-5 melanoma),growth (UACC-62 melanoma),growth (LOX IMVI melanoma),growth (SK-MEL-28 melanoma)
O=P(O)(O)F,inactive: 101%,inactive: 106%,inactive: 114%,inactive: 106%,inactive: 93.1%,inactive: 93.2%,inactive: 101%,inactive: 102%,inactive: 99.3%,inactive: 119%
O=C(N(CCCl)CCCl)C(Cl)(Cl)Cl,inactive: 92.7%,inactive: 91.6%,inactive: 80.6%,inactive: 102%,inactive: 93%,inactive: 81.4%,inactive: 98.2%,inactive: 104%,inactive: 107%,inactive: 103%
ClCCN1CCc2ccccc2C1,inactive: 92.2%,inactive: 99.8%,inactive: 94.8%,inactive: 99.3%,inactive: 98.9%,inactive: 87.2%,inactive: 108%,inactive: 94.9%,inactive: 88.3%,inactive: 100%
CCN(CCCl)CC1OC(O)C(O)C1O (stereo unspecified),inactive: 110%,inactive: 108%,inactive: 98.3%,inactive: 101%,inactive: 97%,inactive: 96.5%,inactive: 86.2%,inactive: 103%,inactive: 105%,inactive: 112%
ClP1(Cl)=NP(Cl)(Cl)=NP(c2ccccc2)(c2ccccc2)=N1,inactive: 106%,inactive: 84.4%,inactive: 91.5%,inactive: 114%,inactive: 99%,,inactive: 101%,inactive: 101%,inactive: 100%,inactive: 107%
CCOP(=O)(Nc1ccc(C)cn1)OCC,inactive: 95.1%,inactive: 96.8%,inactive: 84.7%,inactive: 99%,inactive: 106%,,inactive: 95.4%,inactive: 113%,inactive: 102%,inactive: 118%
O=Cc1sc(N(CCCl)CCCl)nc1Cl,inactive: 103%,inactive: 98.9%,inactive: 95.5%,inactive: 99.7%,inactive: 96.7%,inactive: 92%,inactive: 110%,inactive: 92.2%,inactive: 88.9%,inactive: 106%
COC1OC(CNCCCl)C2OC(C)(C)OC12 (stereo unspecified),inactive: 107%,inactive: 104%,inactive: 70.1%,inactive: 96.7%,inactive: 99.2%,inactive: 115%,inactive: 112%,inactive: 97%,inactive: 108%,inactive: 126%
CCOC(=O)NC(c1ccccc1[N+](=O)[O-])P(=O)(O)Nc1ncn[nH]1 (stereo unspecified),inactive: 98.7%,inactive: 104%,inactive: 88.7%,inactive: 106%,inactive: 108%,inactive: 102%,inactive: 103%,inactive: 101%,inactive: 92.4%,inactive: 105%
CC1CCNP(=O)(N(CCCl)CCCl)O1 (stereo unspecified),inactive: 103%,inactive: 105%,inactive: 90.3%,inactive: 105%,inactive: 107%,inactive: 90.4%,,inactive: 102%,inactive: 101%,inactive: 112%
C=NNc1ccc([N+](=O)[O-])cc1[N+](=O)[O-],inactive: 77.6%,inactive: 95%,inactive: 87.3%,inactive: 94.6%,inactive: 88.9%,inactive: 77.2%,inactive: 91.1%,,inactive: 70.7%,inactive: 97.4%
Cc1ccccc1C(=O)N(CCCl)CCCl,inactive: 93%,inactive: 107%,inactive: 78.4%,inactive: 107%,inactive: 104%,inactive: 92.6%,inactive: 98.2%,inactive: 105%,inactive: 104%,inactive: 102%
O=C(O)CNc1ccc([As](=O)(O)O)cc1,inactive: 105%,inactive: 103%,inactive: 83.4%,,inactive: 98.2%,,inactive: 101%,inactive: 95.5%,inactive: 101%,inactive: 108%
O=[N+]([O-])c1cccc(Oc2ccc([N+](=O)[O-])cc2[N+](=O)[O-])c1,inactive: 12.5%,active: -33.1%,,inactive: 57.8%,inactive: 25.3%,inactive: 25.9%,inactive: 23%,inactive: 31.1%,active: 7.73%,inactive: 35.3%
CN1C(=O)N(C)P12(Cl)N(C)C(=O)N2C,inactive: 105%,inactive: 110%,,inactive: 101%,inactive: 101%,inactive: 99.6%,inactive: 101%,inactive: 100%,inactive: 101%,inactive: 120%
O=[As](O)(O)c1cccnc1,inactive: 95.5%,inactive: 115%,inactive: 90.8%,,inactive: 99.1%,,inactive: 103%,inactive: 106%,inactive: 102%,inactive: 25.4%
COP(=O)(OC)N1CC1c1ccccc1 (stereo unspecified),inactive: 100%,inactive: 107%,inactive: 92%,inactive: 87.9%,,inactive: 95.9%,inactive: 104%,inactive: 89.6%,inactive: 95.3%,inactive: 100%
CCCOP(=S)(Nc1nc(N)cc(=O)[nH]1)OCCC,inactive: 95.4%,inactive: 107%,inactive: 69%,inactive: 89.8%,inactive: 95.9%,,inactive: 97.7%,inactive: 90.3%,inactive: 96.9%,inactive: 105%
Nc1cccc2c([As](=O)(O)O)cccc12,inactive: 120%,inactive: 112%,inactive: 80.3%,inactive: 97.1%,inactive: 108%,,inactive: 101%,inactive: 99.1%,inactive: 108%,inactive: 122%
CC(=O)Nc1ccc([As](=O)(O)O)cc1,inactive: 96.9%,inactive: 109%,inactive: 90.4%,,inactive: 106%,inactive: 99%,inactive: 108%,inactive: 94.3%,inactive: 102%,inactive: 118%
OC(CNCCCl)C(O)C(O)C(O)CNCCCl (stereo unspecified),inactive: 98%,inactive: 101%,inactive: 90.2%,inactive: 104%,,inactive: 94.1%,,inactive: 99.3%,inactive: 91.2%,inactive: 108%
O=C(O)COc1ccc([As](=O)(O)O)cc1[N+](=O)[O-],inactive: 107%,inactive: 95.9%,inactive: 80.4%,inactive: 104%,inactive: 103%,,inactive: 103%,inactive: 106%,inactive: 95.7%,inactive: 100%
O=C(CBr)c1ccc([N+](=O)[O-])cc1,inactive: 113%,inactive: 92.7%,,inactive: 95.1%,inactive: 102%,inactive: 75.6%,inactive: 110%,inactive: 98.1%,inactive: 109%,inactive: 90.9%
O=[As]1(O)c2ccccc2-c2ccccc21,inactive: 117%,inactive: 112%,inactive: 84.2%,inactive: 95.7%,inactive: 102%,,inactive: 99.9%,inactive: 93.1%,inactive: 104%,inactive: 113%
O=[N+]([O-])c1ccc(SSc2ccc([N+](=O)[O-])cc2[N+](=O)[O-])c([N+](=O)[O-])c1,,inactive: 105%,inactive: 82.2%,inactive: 102%,inactive: 102%,inactive: 92.6%,inactive: 103%,,inactive: 80.3%,inactive: 114%
C=CCOP(O)OCC=C,inactive: 109%,inactive: 105%,inactive: 102%,,inactive: 107%,inactive: 96.2%,inactive: 104%,inactive: 96.1%,inactive: 97.1%,inactive: 107%

Structure (SMILES),growth (HCT-15 colon),growth (HT29 colon),growth (SNB-75 CNS),growth (SNB-19 CNS),growth (U251 CNS),growth (PC-3 prostate),growth (SK-MEL-5 melanoma),growth (UACC-62 melanoma),growth (LOX IMVI melanoma),growth (SK-MEL-28 melanoma)
O=[N+]([O-])C1C(O)C(O)C([N+](=O)[O-])C(O)C1O (stereo unspecified),inactive: 106%,inactive: 101%,inactive: 123%,inactive: 96.7%,,inactive: 106%,inactive: 101%,inactive: 95.8%,inactive: 105%,inactive: 114%
CN(CCCl)CC1OC(O)C(O)C(O)C1O (stereo unspecified),inactive: 96.3%,,inactive: 96.4%,inactive: 99%,inactive: 94.1%,inactive: 91.9%,inactive: 108%,inactive: 100%,inactive: 102%,inactive: 103%
CCOP(=S)(OCC)SCCCl,inactive: 95.1%,inactive: 115%,inactive: 82.6%,inactive: 98.8%,,inactive: 102%,inactive: 103%,inactive: 101%,inactive: 101%,inactive: 108%
S=P1(S)SC(Nc2ccccc2)CN1c1ccccc1 (stereo unspecified),inactive: 107%,inactive: 112%,inactive: 78.7%,inactive: 99.1%,,inactive: 98.1%,inactive: 102%,inactive: 95.8%,inactive: 94.8%,inactive: 113%
c1cc(-c2nn[nH]n2)ccc1-c1nn[nH]n1,inactive: 99.4%,inactive: 110%,inactive: 86.9%,inactive: 97.2%,,inactive: 91.1%,inactive: 94.8%,inactive: 95.2%,inactive: 97.6%,inactive: 97%
ClP1Nc2cncnc2N1 (stereo unspecified),inactive: 105%,inactive: 118%,inactive: 117%,inactive: 98%,inactive: 113%,,inactive: 101%,inactive: 101%,,inactive: 122%
CCN(CC)C(=O)Oc1ccc(/C=N/NC(N)=S)nc1,inactive: 59.1%,inactive: 87.7%,inactive: 59.1%,inactive: 85.2%,,inactive: 83.2%,inactive: 77.1%,inactive: 85.1%,inactive: 77.7%,inactive: 89.9%
CCOC(=O)NC(C)(CCC(C)(NC(=O)OCC)P(=O)(O)Nc1ncccn1)P(=O)(O)Nc1ncccn1 (stereo unspecified),inactive: 105% [100 µM],inactive: 114% [100 µM],inactive: 87.2% [100 µM],inactive: 96.6% [100 µM],inactive: 106% [100 µM],,inactive: 101% [100 µM],inactive: 96.6% [100 µM],,inactive: 106% [100 µM]
O=[As]c1ccc(S(=O)(=O)Nc2ccccc2)cc1 (stereo unspecified),active: -42.1%,inactive: 66.5%,inactive: 63.9%,,inactive: 27%,inactive: 62.1%,inactive: 27.8%,active: 4.74%,active: -27.8%,active: -69%
CCOC(=O)c1sc2ncnc(NCCCl)c2c1C,inactive: 102%,inactive: 108%,,inactive: 94.8%,inactive: 93.3%,inactive: 84.4%,inactive: 97.3%,inactive: 93.5%,inactive: 92%,inactive: 118%
O=P1(Nc2ncccn2)OC(CCl)=NC1c1ccc(C2N=C(CCl)OP2(=O)Nc2ncccn2)cc1 (stereo unspecified),,,,,,,,inactive: 88.6%,,
Cc1ccccc1CN(CCCl)Cc1ccccc1C,inactive: 104%,inactive: 99.3%,inactive: 97.5%,,inactive: 99.1%,inactive: 89%,inactive: 96.4%,inactive: 91.4%,inactive: 96.9%,inactive: 112%
CC1(C)NC(C)(C)C(Br)C(=O)C1Br (stereo unspecified),inactive: 111%,,inactive: 106%,inactive: 104%,inactive: 106%,inactive: 99.2%,inactive: 109%,inactive: 115%,inactive: 95.8%,inactive: 115%
CCN(CC)[P+](c1ccc(OC)cc1OC)(N(CC)CC)N(CC)CC,inactive: 99.2%,inactive: 24.4%,inactive: 30.2%,inactive: 41.2%,,inactive: 15.8%,active: 0.745%,inactive: 39.7%,active: -25.9%,inactive: 65.6%
Nc1cccc2ccc([As](=O)(O)O)cc12,inactive: 102%,inactive: 98.5%,inactive: 67.2%,inactive: 98.9%,inactive: 94.8%,,inactive: 93.4%,inactive: 104%,inactive: 102%,inactive: 111%
COc1cc(I)ccc1[As](=O)(O)O,inactive: 92.7%,inactive: 103%,inactive: 103%,,inactive: 91.5%,,inactive: 103%,inactive: 95.6%,inactive: 94%,inactive: 195%
O=C(c1ccc([N+](=O)[O-])cc1)N(CCCl)CCCl,inactive: 104%,inactive: 101%,inactive: 80.6%,inactive: 101%,,inactive: 99.3%,inactive: 99.9%,inactive: 111%,inactive: 102%,inactive: 105%
ClCCNCc1cccc(Cl)c1,inactive: 96.4%,inactive: 103%,inactive: 84.4%,,inactive: 93.1%,inactive: 89.1%,inactive: 102%,inactive: 114%,inactive: 97.8%,inactive: 97.1%
ClCCNCc1ccccc1,inactive: 106%,inactive: 115%,inactive: 100%,,inactive: 104%,inactive: 94.4%,inactive: 99.9%,inactive: 107%,inactive: 101%,inactive: 118%
O=[N+]([O-])c1ccc(CCCCCCc2ccc([N+](=O)[O-])cc2[N+](=O)[O-])c([N+](=O)[O-])c1,inactive: 91%,inactive: 117%,inactive: 106%,,inactive: 95.3%,inactive: 77.7%,inactive: 83.5%,inactive: 68%,inactive: 97.7%,inactive: 104%
O=C1OCCN1P(=O)(Cl)N1CCOC1=O,inactive: 99.4%,,inactive: 99.3%,inactive: 98.8%,inactive: 94%,inactive: 101%,inactive: 109%,inactive: 101%,inactive: 85.3%,inactive: 101%
NCCc1ccc(N(CCCl)CCCl)cc1,inactive: 78.2%,inactive: 66.5%,inactive: 64.3%,inactive: 77.8%,,inactive: 79.1%,inactive: 85.8%,inactive: 64.1%,inactive: 43.8%,inactive: 86.4%
CCOC(=O)Nc1cccc([As](=O)(O)O)c1,inactive: 90.3%,inactive: 93.3%,inactive: 74.9%,,inactive: 95%,,inactive: 101%,inactive: 91%,inactive: 91%,inactive: 115%
CN(C)C(=O)Oc1ccc(/C=N/NC(N)=S)nc1,inactive: 78.4%,inactive: 103%,inactive: 57.6%,inactive: 104%,,inactive: 92.4%,inactive: 89.9%,inactive: 98.9%,inactive: 89.7%,inactive: 94%
Cc1ccc(S(=O)(=O)CN(CCCl)CCCl)cc1,inactive: 99.2%,inactive: 128%,inactive: 83.1%,inactive: 108%,,inactive: 100%,inactive: 103%,inactive: 93.7%,inactive: 99.7%,inactive: 103%

# From PubChem BioAssay (NCI)
